Experimental data published in PubChem BioAssay AID1224865 (Sanford-Burnham Center for Chemical Genomics, 2016).
Only a part is listed here, and it is no random draw. Some salts or complexes appear as unconnected parts, following the source record. Calls of active or inactive are those of the source. Cut-off read from the data, not from the text of the source: active = activity change above about 30% (passing the limit was not always enough); inactive = the rest.

By UniProt entry, the sequences of proteins in these tests, tags left out.
UniProt P41235, whole entry: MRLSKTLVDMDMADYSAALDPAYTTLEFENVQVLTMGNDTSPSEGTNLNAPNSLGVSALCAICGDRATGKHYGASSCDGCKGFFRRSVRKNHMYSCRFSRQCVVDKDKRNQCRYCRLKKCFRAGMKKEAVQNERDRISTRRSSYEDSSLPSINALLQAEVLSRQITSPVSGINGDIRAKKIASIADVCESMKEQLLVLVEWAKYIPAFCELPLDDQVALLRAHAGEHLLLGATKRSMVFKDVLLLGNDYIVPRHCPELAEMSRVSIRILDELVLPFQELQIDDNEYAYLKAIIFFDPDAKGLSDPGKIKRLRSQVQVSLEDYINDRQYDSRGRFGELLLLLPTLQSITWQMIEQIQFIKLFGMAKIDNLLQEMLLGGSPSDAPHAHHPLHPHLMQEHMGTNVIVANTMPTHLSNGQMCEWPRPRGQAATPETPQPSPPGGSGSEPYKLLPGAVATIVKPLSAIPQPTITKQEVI

target: Hepatocyte nuclear factor 4-alpha (Homo sapiens) (UniProt P41235); assay: change in binding of human HNF4A to DNA, primary screen, biochemical, fluorescence polarization, FITC-DNA (AID 1224865); details: 1 h, at 10 µM, active compounds read high

Row | Compound | activity change
1 | CCCOc1ccc(NP(C)(=O)Oc2ccc(Cl)cc2)cc1 (centres undefined) | inactive: 0.88%
2 | O=P1(Nc2ncccn2)COc2ccccc2OC1 | inactive: -2.81%
3 | COc1ccccc1OP(C)(=O)Nc1c(C)cccc1C (centres undefined) | inactive: -1.07%
4 | CN1CCCCC1COC(=O)C1(O)c2ccccc2CCc2ccccc21 (centres undefined) | inactive: -2.25%
5 | CCCC1OP(=O)(Nc2ccccc2)OCC1CC (centres undefined) | inactive: -0.81%
6 | O=C(/C=C/c1ccccc1)OC1CN2CCC1CC2 (centres undefined) | inactive: 1.64%
7 | CCOC(=O)C(CC)C1=NC(C)(C)Cc2ccccc21.O=[N+]([O-])c1cc([N+](=O)[O-])c(O)c([N+](=O)[O-])c1 (centres undefined) | inactive: 0.7%
8 | O=[N+]([O-])c1cc([N+](=O)[O-])c(Nc2nnnn2CCO)c([N+](=O)[O-])c1 | inactive: 3.03%
9 | CN(C)C1(CNC(=O)c2ccc(S(C)(=O)=O)cc2)CCCCC1 | inactive: 3.23%
10 | CC1=C2N=C(C=C3N=C(C(C)=C4[N-][C@@](C)([C@@H]5N=C1[C@](C)(CCC(=O)NC[C@@H](C)OP(=O)([O-])O[C@H]1[C@@H](O)[C@@H](n6cnc7cc(C)c(C)cc76)O[C@@H]1CO)[C@H]5CC(N)=O)[C@@](C)(CC(N)=O)[C@@H]4CCC(N)=O)[C@@](C)(CC(N)=O)[C@@H]3CCC(N)=O)C(C)(C)[C@@H]2CCC(N)=O.[C-]#N.[Co+3] | inactive: 3.22%
11 | COc1cc(C2NCCC3(OCCO3)C2(C)C)cc(OC)c1OC.O=[N+]([O-])c1cc([N+](=O)[O-])c(O)c([N+](=O)[O-])c1 (centres undefined) | inactive: -0.12%
12 | CC1CCC(C(C)C)C(OP(=O)(Nc2ccccn2)c2ccccc2)C1 (centres undefined) | inactive: -1.5%
13 | Cc1ccc(C(=O)OC2CN3CCC2CC3)cc1 (centres undefined) | inactive: 2.12%
14 | Cc1nn(-c2ccccc2)c2c1P(=O)(N1CCOCC1)N(C)C(c1ccccc1)=N2 (centres undefined) | inactive: -3.16%
15 | CN(C(=O)Cc1ccc(Cl)c(Cl)c1)[C@H]1CC[C@@]2(CCCO2)C[C@@H]1N1CCCC1 | inactive: 0.49%
16 | CC1=NCCc2c1[nH]c1ccccc21.O=[N+]([O-])c1cc([N+](=O)[O-])c(O)c([N+](=O)[O-])c1 | inactive: 6.09%
17 | CN(C)C(=O)c1cc([N+](=O)[O-])cc2c1-c1c(cc([N+](=O)[O-])cc1[N+](=O)[O-])C2=O | inactive: 0.94%
18 | O=[N+]([O-])c1ccc2c(c1)nnn2O | inactive: -1.95%
19 | CN(C(=O)Cc1ccccc1)[C@@H]1CC[C@]2(CCCO2)C[C@H]1N1CCCC1 | inactive: 3.47%
20 | CCOP1(=S)c2c(C)nn(CCC#N)c2N=C(c2ccc(F)cc2)N1C (centres undefined) | inactive: -4.35%
21 | N#CCCN(C(=O)COC(=O)C(O)(c1ccccc1)c1ccccc1)c1ccc(F)cc1 | inactive: -1.35%
22 | NC(=O)Nc1ccc([As](=O)(O)O)cc1 | inactive: 1.53%
23 | Nc1ccccc1[As](=O)(O)c1ccccc1 | inactive: -1.58%
24 | O=C(O)COc1ccc([As](=O)(O)O)cc1[N+](=O)[O-] | inactive: -2.74%
25 | CS(=O)(=O)c1cc([N+](=O)[O-])c2no[n+]([O-])c2c1 | inactive: -2.89%
26 | O=P(Nc1nccs1)(c1ccccc1)c1nc2ccccc2s1 (centres undefined) | inactive: -3.04%
27 | O=P(Nc1nccs1)(Oc1ccccc1)Oc1ccccc1 | inactive: -0.98%

Row | Compound | activity change
28 | CCOP1(=S)c2c(C)nn(CCC#N)c2N=C(c2ccccc2F)N1C (centres undefined) | inactive: -0.92%
29 | O=C(O)c1cccc(Nc2c([N+](=O)[O-])cc([N+](=O)[O-])cc2[N+](=O)[O-])c1 | inactive: -3.73%
30 | CCOP(=O)(Nc1cccc2ccccc12)OCC | inactive: 1.23%
31 | CCCOP(=S)(Nc1nc(N)cc(=O)[nH]1)OCCC | inactive: -0.04%
32 | Cc1ccc(C)c(NP(C)(=O)Oc2ccccc2)c1 (centres undefined) | inactive: 1.13%
33 | Cc1ccc(NCCc2c([N+](=O)[O-])cc([N+](=O)[O-])cc2[N+](=O)[O-])cc1 | inactive: 1.19%
34 | CP(=O)(Nc1cccc(Br)c1)Oc1ccccc1 (centres undefined) | inactive: 4.51%
35 | Cc1cc(C)cc(OP(C)(=O)Nc2ccccn2)c1 (centres undefined) | inactive: -1.35%
36 | CCOC(=O)c1ccc(NP(C)(=O)Oc2cc(C)cc(C)c2)cc1 (centres undefined) | inactive: 0.83%
37 | Cc1cc(C)cc(OP(C)(=O)Nc2ccc(C)cc2C)c1 (centres undefined) | inactive: 3.76%
38 | O=[As](O)(c1cccc(O)c1)c1cccc(O)c1 | inactive: 0.98%
39 | Cc1cccc(OCC(=O)OC2CN3CCC2CC3)c1 (centres undefined) | inactive: 0.59%
40 | COc1ccccc1OP(C)(=O)Nc1cccc(Br)c1 (centres undefined) | inactive: 2.6%
41 | CS(=O)(=O)c1ccc(Cl)c(NC(=O)COC(=O)C(O)(c2ccccc2)c2ccccc2)c1 | inactive: -0.57%
42 | COc1cc(C(=O)NCC2(N3CCOCC3)CCCCC2)cc(Cl)c1OC(C)C | inactive: 2.27%
43 | O=[As](O)(O)c1cccnc1 | inactive: 9.11%
44 | O=C(OC1CN2CCC1CC2)c1ccc(Cl)cc1 (centres undefined) | inactive: 7.52%
45 | CC(=O)Nc1ccc(Oc2c([N+](=O)[O-])cc([N+](=O)[O-])cc2[N+](=O)[O-])cc1 | inactive: 0.27%
46 | COc1ccc2c(c1O)-c1c(O)c(OC)cc3c1[C@H](C2)[N+](C)(C)CC3.O=[N+]([O-])c1cc([N+](=O)[O-])c([O-])c([N+](=O)[O-])c1[O-] | inactive: -5.48%
47 | CC(=O)Nc1ccc([As](=O)(O)O)c(O)c1 | inactive: -0.74%
48 | COC(=O)C1(C)COP(=O)(NCc2ccccc2)OC1 (centres undefined) | inactive: -0.28%
49 | O=C(OC1CN2CCC1CC2)c1ccc([N+](=O)[O-])cc1 (centres undefined) | inactive: 0.99%
50 | N#C/C(=C\c1ccc(N(CCBr)CCBr)cc1)C(N)=O | inactive: 14.7%
51 | CC(=O)c1ccc(N2CC2c2ccncc2)cc1 (centres undefined) | inactive: 2.14%
52 | C[C@@H]1C=CCP(=O)(Oc2ccccc2)O1 (some centres undefined) | inactive: 2.96%
53 | C[C@H]1OP(=O)(Oc2ccccc2)C[C@@H]2O[C@@H]21 (some centres undefined) | inactive: 2.05%
54 | Cc1ccccc1CN(C)C(=O)COC(=O)C(O)(c1ccccc1)c1ccccc1 | inactive: -2.49%
